According to US20050158374A1, “Compositions and dosage forms for enhanced absorption of metformin” (priority 2003, published 2005):

Tests used:
[1] = in vivo colonic absorption using flushed ligated colonic model in rats; conditions: ligated colon

Bioavailability Relative to IV Dose (Fold-Increase) [1]: 14 Fold-Increase
H2O Solubility (4 h): 53
Substance: Metformin oleate
